## Apparent affinities of Ab-91 variants for a coronavirus HR2 peptide

Antigen: PDVDLGDISGINAS, a 14-residue peptide of the SARS-CoV-2 spike HR2 region.

The variants keep the light chain, the linker and the frameworks of Ab-91 (scFv order VL, three GGGGS repeats, VH).
VL: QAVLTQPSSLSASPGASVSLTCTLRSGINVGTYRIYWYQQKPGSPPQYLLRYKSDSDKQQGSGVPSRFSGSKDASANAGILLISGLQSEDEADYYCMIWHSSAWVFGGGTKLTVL
VH: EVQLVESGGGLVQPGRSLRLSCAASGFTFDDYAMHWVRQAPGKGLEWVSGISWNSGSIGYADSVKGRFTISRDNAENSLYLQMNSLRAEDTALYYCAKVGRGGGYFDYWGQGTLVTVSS

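The library (AAYL51) carries one to three amino acid substitutions per variant, with no insertions or deletions. The scFvs were displayed on barcoded MATa yeast, the peptide on MATalpha yeast. Binding brings cells together so that they mate, and sequencing counts the barcode pairs among the diploids. Read counts were normalised to the haploid input and turned into Kd by a linear fit to BCL2-family pairs of known affinity, for each replicate. The assay was run in three technical replicates.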

Positions count from residue 1 of the parent VH; T28F puts F in place of T.
All variants listed here change D31 of the VH, counted from its first residue.
Values are apparent Kd, the geometric mean of the replicates that gave a signal; lower means stronger binding.
A pair that was not seen in any replicate is written "nd"; this usually means weak binding, but a binder can also be missed.
Empty control strains, which show no peptide, gave a signal in 21% of pairings with library AAYL51; the median was 34 µM and 95% of these signals were weaker than 1.8 µM. No background was subtracted.

Variant T28F+D31L+A33Y gave nd (0 of 3 replicates). Variant F29I+D31Q+S52L showed 130 µM (1 of 3 replicates). Variant D31V+G50N+G100E gave 32 µM (1 of 3 replicates). For D31C+A61M+G104A, the assay gave 870 nM (3 of 3 replicates). For D31S+S52V+D107F, the assay gave 45 µM (3 of 3 replicates). Variant D31P+N54A showed nd (0 of 3 replicates). For D31N+G56K+K65A, the assay gave 34 nM (3 of 3 replicates). For D31W+W53A+R101I, the assay gave 2.1 nM (3 of 3 replicates). For D31L+M34P+K65W, the assay gave 670 µM (1 of 3 replicates).

For D31G+V64G+Y108S, the assay gave 40 µM (3 of 3 replicates). With D31P+G103E+F106I the result was 40 µM (1 of 3 replicates). For F29M+D31Y+G102V, the assay gave nd (0 of 3 replicates). Variant D31P+H35G+G56H gave nd (0 of 3 replicates). For D31Y+M34I+S55M, the assay gave 120 µM (1 of 3 replicates). With F29K+D31H+N54W the result was nd (0 of 3 replicates). Variant D30G+D31V+G104L gave 12 nM (3 of 3 replicates). Variant D31P+M34R+K65W showed nd (0 of 3 replicates). For D31L+H35L+S63E, the assay gave 270 µM (1 of 3 replicates).

For D31L+S52W+K65W, the assay gave nd (0 of 3 replicates). With D31S+Y32I+D107H the result was 110 µM (2 of 3 replicates). With D31G+G56A+G100S the result was 81 µM (1 of 3 replicates). Variant D31Q+A33T+S52P gave nd (0 of 3 replicates). With D31F+N54H+K65V the result was nd (0 of 3 replicates). With D30G+D31N+H35N the result was 86 µM (2 of 3 replicates). For G26Q+D31P+M34P, the assay gave nd (0 of 3 replicates). For G26D+D30E+D31M, the assay gave 19 µM (1 of 3 replicates). Variant F27I+T28I+D31E showed nd (0 of 3 replicates).

With D31S+A33Q+D107W the result was 310 µM (1 of 3 replicates). With G26D+D31C+N54T the result was 17 µM (3 of 3 replicates). For D31M+N54T+A61Q, the assay gave 73 µM (1 of 3 replicates). With D31Q+F106C the result was 92 µM (1 of 3 replicates). Variant D30R+D31F+F106A showed 11 µM (3 of 3 replicates). Variant D31L+I58W+Y108L showed 41 nM (3 of 3 replicates). Variant D31L+S55G showed 3.7 nM (3 of 3 replicates). With D31N+S55P+Y60L the result was 5.9 µM (3 of 3 replicates). Variant D31G+H35F+Y108L showed 3.1 µM (1 of 3 replicates).

6 of these entries, quoted again:

changes,Kd (apparent),seen in
D31G+G56A+G100S,81 µM,1 of 3
F29K+D31H+N54W,nd,0 of 3
D31Q+A33T+S52P,nd,0 of 3
D31M+N54T+A61Q,73 µM,1 of 3
D31S+S52V+D107F,45 µM,3 of 3
G26Q+D31P+M34P,nd,0 of 3

Data: MIT Lincoln Laboratory AlphaSeq set, Engelhart et al. 2022, doi:10.1038/s41597-022-01779-4, as distributed in FLAb.